How the values were obtained:
[1] = target: full-length beta-Catenin (Uniprot ID P35222) (Homo sapiens (Human)) (UniProt P35222); test: fluorescence polarization competition; displacement of 5FAM-TCF4(10-53) from full-length beta-catenin
[2] = target: full-length beta-Catenin (Uniprot ID P35222) (Homo sapiens (Human)) (UniProt P35222); test: fluorescence polarization competition; full-length beta-catenin, 5FAM-TCF4(10-53) probe displaced
[3] = target: full-length beta-Catenin (Uniprot ID P35222) (Homo sapiens (Human)) (UniProt P35222); test: fluorescence polarization competition; full-length beta-catenin, 5FAM-TCF4(10-53) probe as competitor

Sequences of proteins named here, by UniProt entry; tags and fusion partners are left off. Residues count along the entry.
UniProt P35222, whole entry: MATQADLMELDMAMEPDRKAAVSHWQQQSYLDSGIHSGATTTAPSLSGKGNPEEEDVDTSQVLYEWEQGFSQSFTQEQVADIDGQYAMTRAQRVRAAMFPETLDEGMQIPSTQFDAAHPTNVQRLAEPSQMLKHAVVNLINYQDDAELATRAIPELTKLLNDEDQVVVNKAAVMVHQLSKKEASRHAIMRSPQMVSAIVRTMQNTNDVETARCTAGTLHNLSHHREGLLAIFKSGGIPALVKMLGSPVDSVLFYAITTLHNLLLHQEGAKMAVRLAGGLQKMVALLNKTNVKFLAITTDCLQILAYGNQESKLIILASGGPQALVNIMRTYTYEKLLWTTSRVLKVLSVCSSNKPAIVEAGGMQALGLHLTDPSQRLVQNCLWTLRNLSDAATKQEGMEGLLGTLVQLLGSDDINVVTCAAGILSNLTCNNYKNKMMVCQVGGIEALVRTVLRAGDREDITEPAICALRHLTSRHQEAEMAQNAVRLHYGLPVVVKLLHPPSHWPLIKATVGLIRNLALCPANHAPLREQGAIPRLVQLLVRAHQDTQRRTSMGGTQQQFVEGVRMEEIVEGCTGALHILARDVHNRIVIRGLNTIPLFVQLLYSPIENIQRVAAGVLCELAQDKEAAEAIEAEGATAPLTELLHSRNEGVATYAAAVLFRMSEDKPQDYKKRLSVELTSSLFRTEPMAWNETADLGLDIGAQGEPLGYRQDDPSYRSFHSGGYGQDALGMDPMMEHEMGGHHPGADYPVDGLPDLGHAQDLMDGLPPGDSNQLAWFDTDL
UniProt P35222, 2-781 limits assumed: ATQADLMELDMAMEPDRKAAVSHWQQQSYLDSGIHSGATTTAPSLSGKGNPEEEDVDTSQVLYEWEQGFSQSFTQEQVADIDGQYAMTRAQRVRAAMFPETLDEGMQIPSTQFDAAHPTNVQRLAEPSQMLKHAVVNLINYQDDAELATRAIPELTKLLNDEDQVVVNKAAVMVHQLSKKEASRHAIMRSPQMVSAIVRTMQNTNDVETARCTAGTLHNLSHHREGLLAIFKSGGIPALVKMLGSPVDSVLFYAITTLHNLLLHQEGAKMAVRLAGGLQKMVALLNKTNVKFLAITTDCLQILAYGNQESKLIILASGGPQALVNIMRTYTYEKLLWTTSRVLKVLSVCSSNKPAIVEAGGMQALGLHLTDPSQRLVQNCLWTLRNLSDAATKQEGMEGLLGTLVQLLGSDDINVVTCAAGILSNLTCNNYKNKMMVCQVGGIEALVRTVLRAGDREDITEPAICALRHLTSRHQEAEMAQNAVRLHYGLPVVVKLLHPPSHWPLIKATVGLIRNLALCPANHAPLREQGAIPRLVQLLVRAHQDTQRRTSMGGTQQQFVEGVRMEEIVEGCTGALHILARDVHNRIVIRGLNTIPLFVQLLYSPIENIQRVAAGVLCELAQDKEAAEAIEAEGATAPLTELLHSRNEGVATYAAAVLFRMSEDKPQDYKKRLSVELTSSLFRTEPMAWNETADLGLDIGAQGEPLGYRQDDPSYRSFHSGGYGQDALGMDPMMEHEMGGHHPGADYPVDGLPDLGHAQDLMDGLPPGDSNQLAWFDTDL

| IC50 [1] | IC50 [3] | Substance | also measured |
| --- | --- | --- | --- |
| 11 nM | – | I-1520: Ac-PL3-Asp-Cha-B5-Asp-Asp-Ala-Ala-Phe-Leu-PyrS2-3Thi-BztA-Hse-NH2 (peptide) | – |
| – | 28 nM | Ac-PL3-Asp-Npg-B5-Asp-3COOHF-Ala-Ala-Phe-Abu-PyrS2-2F3MeF-BztA-[Pip]GlnR-Ala-NH2 (peptide) | – |

Continued, substance first:

| Substance | IC50 [1] | IC50 [3] | also measured |
| --- | --- | --- | --- |
| Ac-PL3-Asn-Npg-B5-Asp-Asp-Ala-Ala-Phe-Asn-PyrS2-3Thi-BztA-Gln-NH2 (peptide) | – | – | IC50 [2]: 11 nM |
| I-1509: Ac-PL3-Asp-Phe-B5-Asp-Asp-Ala-Ala-Phe-Leu-PyrS2-3Thi-BztA-Gln-NH2 (peptide) | 11 nM | – | – |
| Ac-PL3-Asp-Npg-B5-Asp-3COOHF-Ala-Ala-Phe-Abu-PyrS2-2F3MeF-BztA-[NHEt]GlnR-Ala-NH2 (peptide) | – | 13 nM | – |

— patent publication US20240116985A1, “STAPLED PEPTIDES AND METHODS THEREOF” (priority 2020, published 2024)
